The record followed here is ChEMBL document CHEMBL4706653, “Ultra-short lipopeptides against gram-positive bacteria while alleviating antimicrobial resistance” (Eur J Med Chem, 2021).

What all share (format): functional
Assay [1] deals with Staphylococcus aureus. The experiment in a line: Antimicrobial activity against Staphylococcus aureus ATCC 25923 after 18 hrs in presence of ZnCl2 by broth microdilution method.
Assay [2] concerns Staphylococcus aureus. As to the kind of experiment: Antimicrobial activity against Staphylococcus aureus ATCC 25923 after 18 hrs in presence of KCl by broth microdilution method.
For assay [3], the system named is Staphylococcus aureus. As to the kind of experiment: Antimicrobial activity against Staphylococcus aureus ATCC 25923 after 18 hrs in presence of NaCl by broth microdilution method.
Assay [4] deals with Staphylococcus aureus. The experiment in a line: Antimicrobial activity against Staphylococcus aureus ATCC 25923 after 18 hrs in presence of 10% serum by broth microdilution method.
Assay [5] concerns Staphylococcus aureus. As to the kind of experiment: Antimicrobial activity against Staphylococcus aureus ATCC 25923 after 18 hrs in presence of MgCl2 by broth microdilution method.
The subject of assay [6] is Staphylococcus aureus. As to the kind of experiment: Antimicrobial activity against Staphylococcus aureus ATCC 29213 after 18 hrs by broth microdilution method.
The subject of assay [7] is Staphylococcus aureus. The experiment in a line: Antimicrobial activity against Staphylococcus aureus ATCC 25923 after 18 hrs in presence of 2.5% serum by broth microdilution method.
Assay [8] relates to Staphylococcus aureus. As to the kind of experiment: Antimicrobial activity against methicillin-resistant Staphylococcus aureus 113 after 18 hrs by broth microdilution method.
The subject of assay [9] is Staphylococcus aureus. As to the kind of experiment: Antimicrobial activity against Staphylococcus aureus ATCC 25923 after 18 hrs in presence of FeCl3 by broth microdilution method.
In assay [10] the test system is Staphylococcus aureus. As to the kind of experiment: Antimicrobial activity against Staphylococcus aureus ATCC 25923 after 18 hrs in presence of NH4Cl by broth microdilution method.
For assay [11], the system named is Staphylococcus aureus. The experiment in a line: Antimicrobial activity against methicillin-resistant Staphylococcus aureus 75 after 18 hrs by broth microdilution method.
Assay [12] deals with Staphylococcus aureus. As to the kind of experiment: Antimicrobial activity against Staphylococcus aureus ATCC 25923 after 18 hrs by broth microdilution method.
Assay [13] concerns Staphylococcus aureus. As to the kind of experiment: Antimicrobial activity against Staphylococcus aureus ATCC 25923 after 18 hrs in presence of 5% serum by broth microdilution method.
The test system of assay [14] is Staphylococcus epidermidis. The experiment in a line: Antimicrobial activity against Staphylococcus epidermidis ATCC 12228 after 18 hrs by broth microdilution method.
Assay [15] has as its system Staphylococcus aureus. The experiment in a line: Antimicrobial activity against Staphylococcus aureus ATCC 25923 after 18 hrs in presence of CaCl2 by broth microdilution method.
For another assay, the system named is Bacillus subtilis. As to the kind of experiment: Antimicrobial activity against Bacillus subtilis ATCC 23857 after 18 hrs by broth microdilution method.

Structures are written as SMILES. In brackets after ≈: the same amount, converted by molar mass.

On to `CC[C@H](C)[C@H](NC(=O)CN)C(=O)NCC(=O)N[C@@H](C)C(=O)N[C@H](C(=O)N[C@@H](CC(C)C)C(=O)N[C@@H](CCCCN)C(=O)N[C@H](C(=O)N[C@@H](CC(C)C)C(=O)N[C@H](C(=O)N[C@H](C(=O)NCC(=O)N[C@@H](CC(C)C)C(=O)N1CCC[C@H]1C(=O)N[C@@H](C)C(=O)N[C@@H](CC(C)C)C(=O)N[C@H](C(=O)N[C@@H](CO)C(=O)N[C@@H](Cc1c[nH]c2ccccc12)C(=O)N[C@H](C(=O)N[C@@H](CCCCN)C(=O)N[C@@H](CCCNC(=N)N)C(=O)N[C@@H](CCCCN)C(=O)N[C@@H](CCCNC(=N)N)C(=O)N[C@@H](CCC(N)=O)C(=O)N[C@@H](CCC(N)=O)C(N)=O)[C@@H](C)CC)[C@@H](C)CC)[C@@H](C)O)[C@@H](C)O)C(C)C)C(C)C` [MELITTIN], for which the MIC in the assay with Staphylococcus aureus [1] was 8 µM; with Staphylococcus aureus [2], 4 µM; in the assay with Staphylococcus aureus [3], 8 µM; with Staphylococcus aureus [4], 8 µM; in the assay on Staphylococcus aureus [5], 4 µM; against Staphylococcus aureus [6], 4 µM (≈ 11.4 µg/mL). Moreover, the MIC with Staphylococcus aureus [7] amounted to 4 µM; in the assay on Staphylococcus aureus [8], 2 µM (≈ 5.69 µg/mL); in the assay with Staphylococcus aureus [9], 8 µM; in the assay on Staphylococcus aureus [10], 4 µM; against Staphylococcus aureus [11], 2 µM (≈ 5.69 µg/mL); against Staphylococcus aureus [12], 2 µM (≈ 5.69 µg/mL). Besides, the MIC was determined as 8 µM in the assay on Staphylococcus aureus [13], 4 µM (≈ 11.4 µg/mL) in [14], 8 µM in the assay on Staphylococcus aureus [15] and 1 µM (≈ 2.85 µg/mL) in the assay on Bacillus subtilis.
